Measurements published in patent publication US10334859B2, “Method and pesticidal mixtures for controlling Pentatomidae pests” (BASF SE, priority 2014, dated 2019).
Read-outs that look alike come from different tables or passages of the source.

Assays:
[1] = test system: boll weevil (Anthonomus grandis); settings: egg and larval mortality after 5 days
[2] = test system: Mediterranean fruitfly (Ceratitis capitata); settings: 160 ppm; egg and larval mortality after 5 days
[3] = test system: tobacco budworm (Heliothis virescens); settings: 400 ppm; egg and larval mortality after 5 days

In the case of imidacloprid, the Observed efficacy ([1]; 0.8 ppm) is reported as 25% and the Observed efficacy ([1]; 0.8 ppm, listed as Imicacloprid) is reported as 0%.
C[C@@H]1C(=O)O[C@H]2C[C@@]34[C@H]5C[C@@H](C(C)(C)C)[C@]36[C@@H](OC(=O)[C@@H]6O)O[C@@]4(C(=O)O5)[C@]21O [Ginkgolide A] was tested, and the Observed efficacy ([1]; 20 ppm) was 0%.
For abamectin, the Observed efficacy ([1]; 0.003 ppm) was 0%.
CN/C(=N/CC1CCOC1)N[N+](=O)[O-] (stereo not drawn) [Dinotefuran, dinotefuran] gave an Observed efficacy ([1]; 0.08 ppm) of 0%.
CC(C)(C)[C@]1(O)C[C@@H]2OC(=O)C[C@@]23C(=O)O[C@@H]2OC(=O)[C@H](O)[C@]213 [Bilobalide, (3aS,5aR,8aS,9R,10aR)-9-tert-butyl-8,9-dihydroxydihydro-9H-furo[2,3-b]furo[3′,2′;2,3]cyclopenta[1,2-c]furan-2,4,7(3H,8H)-trione] showed an Observed efficacy [2] of 0%, an Observed efficacy ([1]; 64 ppm) of 25% and an Observed efficacy ([1]; 160 ppm) of 0%. It also gave an Observed efficacy [3] of 0%.
